Values of other authors in PMC6608750.

Amino acid sequences for entries named in this document (tags omitted). Residues count along the entry.
UniProt P10275, 1-559: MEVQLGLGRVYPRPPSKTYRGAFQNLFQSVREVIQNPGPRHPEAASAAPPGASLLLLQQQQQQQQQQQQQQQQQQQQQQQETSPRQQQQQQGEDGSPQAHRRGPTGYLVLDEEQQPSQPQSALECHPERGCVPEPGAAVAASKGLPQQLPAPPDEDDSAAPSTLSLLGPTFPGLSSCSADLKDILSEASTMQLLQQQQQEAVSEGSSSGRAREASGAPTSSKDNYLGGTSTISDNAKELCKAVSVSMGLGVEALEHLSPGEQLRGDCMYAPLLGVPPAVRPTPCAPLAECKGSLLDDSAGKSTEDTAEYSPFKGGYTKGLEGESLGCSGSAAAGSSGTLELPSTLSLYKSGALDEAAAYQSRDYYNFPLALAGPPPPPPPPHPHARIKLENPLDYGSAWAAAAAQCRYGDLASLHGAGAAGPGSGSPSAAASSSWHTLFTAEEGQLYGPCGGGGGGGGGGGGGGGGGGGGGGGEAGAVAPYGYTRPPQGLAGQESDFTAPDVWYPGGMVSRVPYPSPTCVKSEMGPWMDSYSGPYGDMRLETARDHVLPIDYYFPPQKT

Target: Androgen receptor TAD (Homo sapiens) (UniProt P10275)

- Kd: 70 nM
Substance: BRD4 (from UniProt O60885)
